For 1 compound, outcome results are on record in PubChem BioAssay AID2105 (Johns Hopkins Ion Channel Center, 2009).

This is a selection; strong and weak results do not stand in their true shares. Active and inactive are the calls of the source.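 How the source made its calls: active means dye signal at least 3 control SD above or below untreated wells in both duplicates, raw fluorescence within 3, either direction; inactive means the rest.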

This assay can be described thus: parental HEK293 cell activity, no Kir2.1 – FluxOR thallium flux, duplicate, single concentration, counter-screen for Kir2.1 inhibitor project, confirmation (AID 2105). The note with it: parental HEK293 cells, FluxOR thallium flux fluorescence; at 10 µM.
For `c1ccc(CN2CCC(Nc3ccccc3)CC2)cc1`, the result was inactive.
